The values below are quoted from earlier work in PMC8745263 (International Journal of Molecular Sciences, 2021).

Entries after “also recorded” stand apart in the source; their conditions may differ.

In this data set the test system is APEH. The conditions noted are these: cited from earlier work.

With “DAEFRHDSGYEVH(ox)H(ox)QKLVF(ox)F(ox)AEDVGSNK”, the cleaved bond result is “H(ox)-Q; also recorded: F(ox)-F(ox)”.
